IC50 data for three molecules are collected here from US4594246A, “Pharmaceutically-acceptable amine salts of 6-β-halopenicillanic acids” (Leo Pharmaceutical Products, priority 1979, dated 1986).

In brackets after ≈: the same amount, converted by molar mass.

One assay has as its system Coryneb. xerosis FF. Briefly: Antibacterial spectrum (Table I). Conditions: serial dilutions in fluid medium, inoculum 10^ CFU (grampositive organism).
The next assay deals with Bacillus subt. KA2. In words: Antibacterial spectrum (Table I). Conditions: serial dilutions in fluid medium, inoculum 10^ CFU (grampositive organism).

With `CC1(C)S[C@@H]2[C@H](Cl)C(=O)N2[C@H]1C(=O)O`, the IC50 came to 5.0 µg/mL (≈ 21.2 µM) with Coryneb. xerosis FF and 7.9 µg/mL (≈ 33.5 µM) in the assay on Bacillus subt. KA2.
For `CC1(C)S[C@@H]2[C@H](I)C(=O)N2[C@H]1C(=O)O`, the IC50 in the assay on Coryneb. xerosis FF stood at 16 µg/mL (≈ 48.9 µM); in the assay on Bacillus subt. KA2, 13 µg/mL (≈ 39.7 µM).
Turning to `CC1(C)S[C@@H]2[C@H](Br)C(=O)N2[C@H]1C(=O)O`, the half-inhibitory concentration (IC50) in the assay on Coryneb. xerosis FF and in the assay on Bacillus subt. KA2 was 5.0 µg/mL (≈ 17.8 µM) each time.

What is called IC50 is the point on the concentration scale where inhibition reaches its midpoint.
